Source: US20230192660A1 (priority 2020, published 2023)

Biological target: SARS-Co-V2 MPro (Severe acute respiratory syndrome coronavirus 2, UniProt P0DTD1)
Test: cell-based
Details: HEK293 cells; estimated from images (FIG. 3) and immunoblots (FIG. 4)

With CCCC[C@H](NC(=O)[C@@H]1[C@@H]2[C@H](CN1C(=O)[C@@H](NC(=O)NC1(CS(=O)(=O)C(C)(C)C)CCCCC1)C(C)(C)C)C2(C)C)C(=O)C(=O)NC1CC1 [narlaprevir] the EC50 was 1000 to 3200 nM.
